Measurements published in US20250276034A1, “RELEASE-CONTROLLED TOPICAL INJECTION COMPOSITION CONTAINING CYCLIC PEPTIDE AND PREPARATION METHOD THEREFOR” (ORIENTBIO INC., priority 2021, published 2025).

Assay: In-vitro release test using rat plasma as release medium (HPLC)
Format: physicochemical
Details: 37° C.
Protocol: Delayed drug release depends on the time for PLGA to degrade. When PBS with tween 80 0.2% (pH: 7.4), commonly used in in-vitro drug release testing, is used as a release medium, no drug is released for a minimum of two weeks and a maximum of four weeks. This is different from in-vivo release results.
Accordingly, an in-vitro release test was conducted using rat plasma as a release medium to mimic in-vivo conditions and to establish an optimal in vitro-in vivo correlation (IV-IVC). As the rat plasma, a supernatant obtained by dispensing blood from rats into heparinized tubes, followed by centrifugation in a centrifuge at 3,000 rpm for 10 minutes, was used. […] Then, sampling was performed hourly, followed by analysis by HPLC to measure the quantity of drug released. The HPLC analysis method is as follows.
After a vial to be sampled was vortexed for 30 seconds, each 100 μl sample was dispensed from the vial, followed by centrifugation at 13,000 rpm for 30 minutes. Thereafter, 90 μl of the separated supernatant was dispensed, followed by addition of 270 μl of ACN (Sample A). To the remaining pellets, 360 μl of 75% ACN was added (Sample B). Then, Samples A and B were subjected to sonication for 3 minutes, followed centrifugation at 13,000 rpm for 30 minutes. Theater, 300 μl of the separated supernatant of Samples A and B was dispensed and filtered through a 0.22 μm syringe filter, followed by analysis by HPLC.

| Substance | drug release profile / initial burst |
| --- | --- |
| [D-2-(4-Methylbenzenethio)-Sar^3]Cyclosporine a | good drug release profile as a sustained-release formulation without an initial burst |
| [N-Methyl-D-Abu^3]Cyclosporine A | good drug release profile as a sustained-release formulation without an initial burst |
| [N-Methyl-D-Ala^3]Cyclosporine A [[D-MeAla^3]cyclosporine A] | good drug release profile as a sustained-release formulation without an initial burst |
| [N-Methyl-D-Norval^3]Cyclosporine A [[N-methyl-D-Nva^3]cyclosporine A] | good drug release profile as a sustained-release formulation without an initial burst |
